Test system: PC3-DR cells
Assay: cells
Settings: Homo sapiens, 48 h

- IC50: 0.27 ± 0.0213 µM
SMILES: CC(=O)O[C@@]12CO[C@@H]1C[C@H](O)[C@@]1(C)C(=O)[C@H](O)C3=C(C)[C@@H](OC(=O)[C@H](O)[C@@H](NC(=O)OC(C)(C)C)c4ccccc4)C[C@@](O)([C@@H](OC(=O)c4ccccc4)[C@H]21)C3(C)C [Doce, docetaxel]
